The results in this text go back to article PMC11024795 (GeoHealth, 2024).

Sequences of proteins named here, by UniProt entry; tags and fusion partners are left off. Residues count along the entry.
UniProt Q96P20, 742-991 limits assumed: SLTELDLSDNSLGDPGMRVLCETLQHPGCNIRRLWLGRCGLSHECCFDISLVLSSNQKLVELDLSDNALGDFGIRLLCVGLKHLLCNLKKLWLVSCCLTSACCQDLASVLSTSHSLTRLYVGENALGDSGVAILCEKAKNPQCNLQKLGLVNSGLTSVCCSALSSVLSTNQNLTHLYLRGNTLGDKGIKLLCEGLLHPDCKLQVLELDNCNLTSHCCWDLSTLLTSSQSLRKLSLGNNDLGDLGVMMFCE

The target in the assay is hNLRP3 LRR recombinant protein (Homo sapiens, UniProt Q96P20). Kind of assay: Surface plasmon resonance. The format is binding. On the technique in general: SPR reads the build-up and loss of mass on a sensor chip optically.

Turning to `CCOP(=O)(OCC)Oc1ccc([N+](=O)[O-])cc1` [paraoxon], the dissociation constant Kd is 325 µM.

The term Kd denotes a measure of binding affinity in units of concentration.
